# Measurements from paper PMC8632000, “Dose Tailoring of Vancomycin Through Population Pharmacokinetic Modeling Among Surgical Patients in Pakistan” (Frontiers in Pharmacology, 2021).
# Experiment: Population pharmacokinetic model (NONMEM) of vancomycin plasma concentration-time data in surgical patients
# Settings: one-compartment final model; clearance at a CRCL of 101.15 mL/min and weight of 75 kg; 58 patients
compound,measurement,value
CN[C@H](CC(C)C)C(=O)N[C@H]1C(=O)N[C@@H](CC(N)=O)C(=O)N[C@H]2C(=O)N[C@H]3C(=O)N[C@H](C(=O)N[C@H](C(=O)O)c4cc(O)cc(O)c4-c4cc3ccc4O)[C@H](O)c3ccc(c(Cl)c3)Oc3cc2cc(c3O[C@@H]2O[C@H](CO)[C@@H](O)[C@H](O)[C@H]2O[C@H]2C[C@](C)(N)[C@H](O)[C@H](C)O2)Oc2ccc(cc2Cl)[C@H]1O [Vancomycin],"CL, final estimate",2.45 L/h
